Results on one substance are retold here after patent US20240327331A1, “ESTERS OF 7-COOH CBD DERIVATIVES AND THEIR USE AS PREVENTION, PROPHYLAXIS OF PROGRESSION, AND/OR TREATMENT OF NEUROGENERATIVE DISEASES” (Receptor Pharma INC, priority 2021, published 2024).

Chains of the proteins cited; added tags and fusions are not shown. Lines headed by an entry give the natural chain unless they say otherwise; changes in a name come on top.
UniProt P46089: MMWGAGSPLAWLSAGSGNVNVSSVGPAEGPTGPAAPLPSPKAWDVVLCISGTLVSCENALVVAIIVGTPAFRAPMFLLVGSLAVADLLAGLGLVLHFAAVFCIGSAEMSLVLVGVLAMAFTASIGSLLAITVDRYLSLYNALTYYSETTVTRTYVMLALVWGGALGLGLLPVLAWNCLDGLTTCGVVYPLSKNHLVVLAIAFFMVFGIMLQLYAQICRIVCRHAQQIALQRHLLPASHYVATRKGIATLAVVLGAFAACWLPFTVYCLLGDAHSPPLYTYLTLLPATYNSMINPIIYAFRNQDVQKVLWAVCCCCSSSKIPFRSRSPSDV

The target of this experiment is GPR3 receptor (Homo sapiens, UniProt P46089). Put plainly: PathHunter β-arrestin2 recruitment assay in CHO-K1 cells expressing GPR3-PK. Also on record: host or cells: CHO-K1 (PathHunter eXpress kit). It is filed as cell-based. From the text: The PathHunter™ eXpress kits containing Chinese hamster ovary (CHO)-K1 cells co-expressing EA-O-arrestin2 human and GPR3-PK were purchased from DiscoverX (Fremont, CA). All cannabinoid ligands were purchased from BDG Synthesis (Wellington, New Zealand).
PathHunter™ eXpress kits were used to measure GPR3-mediated β-arrestin2 recruitment following manufacturer's instructions. In this system, Chinese hamster ovary (CHO)-K1 cell line are stably expressing the GPR3 receptors which were fused to a “ProLink (PK)” fragment of βi-galactosidase to form GPR3-PK. The remaining sequence of β-galactosidase enzyme acceptor (EA) was linked to β-arrestin2 to form EA-β-arrestin2. Recruitment of Si-arrestin2 by receptor activation causes complementation of the two enzyme fragments. Levels of the active enzyme are the direct result of β-arrestin2 recruitment caused by receptor activation and quantified using the PathHunter detection reagent containing β-galactosidase substrates. […] Luminescence signal was then detected using a TECAN GENios Pro microplate reader.
Ligand-induced changes in R-arrestin2 recruitment to GPR3 were expressed as percent basal relative luminescence units, which was calculated by dividing luminescence readings in the presence of ligands by basal luminescence readings, times 100. […] Data were analyzed using one-way analysis of variance (ANOVA) followed by NewmanKeuls post-test. […]
Background: Recruitment of arrestin is a read-out of receptor activation apart from second messengers.

Like-named read-outs stand apart in the source and are kept apart here.

As a reminder, the IC50 is the concentration that inhibits the measured activity by half. With SR144528, the IC50 (cells incubated with 10 μM 7-COOH-CBD, FIG. 2, read-out: IC50 of SR144528 in competition experiment) stood at 200 µM and the IC50 (read-out: IC50 as GPR3 inverse agonist, SR144528 alone) came out at 16 µM.
